AlphaSeq binding of Ab-14 heavy chain variants to a spike HR2 peptide

Target: peptide PDVDLGDISGINAS, taken from heptad repeat 2 (HR2) of SARS-CoV-2 spike.

Parent: Ab-14, a human scFv built as VH, a 15-residue (Gly4Ser)3 linker, VL. Only the CDRs of the heavy chain vary.
VH: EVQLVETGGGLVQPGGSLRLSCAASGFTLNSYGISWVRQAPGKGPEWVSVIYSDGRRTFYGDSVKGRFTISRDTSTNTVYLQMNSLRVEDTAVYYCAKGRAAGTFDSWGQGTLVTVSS
VL: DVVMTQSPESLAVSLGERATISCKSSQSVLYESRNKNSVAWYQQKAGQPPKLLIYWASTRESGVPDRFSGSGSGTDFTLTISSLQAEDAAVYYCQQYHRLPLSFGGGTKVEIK

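These sequences belong to a second round, designed from the earlier measurements on random variants of the parent. Their group label is 14H_En_HC (En: ensemble of fine-tuned language models; HC: hill climbing; a sequence that several methods proposed may carry one label only). In AlphaSeq, yeast of one mating type display the scFv and yeast of the other type display the target. Pairs that bind mate more often; barcode pairs of the diploids are counted by sequencing. Each replicate has its own calibration line, from reference interactions of the BCL2 family. The assay was run in six technical replicates.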

Variants are written as CDR1, CDR2 and CDR3 of the heavy chain (limits as in the source). Parent: GFTLNSYGIS, VIYSDGRRTFYGDSVK, GRAAGTFDS. The read-out is the apparent dissociation constant on a log10 scale (nM): the lower, the stronger. The mean shown is taken over the replicates in which the pair was detected. "ND" means that the variant was in the library but no mating with the target was seen in that replicate; the authors take this as a sign of poor binding, and no number exists. The authors averaged sequences with at least three values out of six and counted those with two or fewer as poor binders. Of ten entries with the parent sequence, four were seen in most replicates (averages 0.34 to 2.37), three in one and three in none, so single entries are noisy. Background: pairings of all heavy chain designs with three empty control strains gave a value in 1% of cases (median 2.08, 5th percentile 0.84). Values in that range, when seen in few replicates, are hard to tell from nonspecific mating. For each scFv, signals with the empty controls are counted beside the result, with their mean in brackets. Values of this round are not directly comparable with the first-round values of the same sequences.

CDR-H1,CDR-H2,CDR-H3,log10 Kd (nM) by replicate,"log10 Kd (nM), mean",control signals
GFDLNEYGIS,VIYADGRRTQYIDSVK,GEVAGTFDT,0.56 / 0.77 / 0.70 / 0.51 / 1.31 / 1.07,0.82,1/18 (2.61)
GFDLNEYGIS,VIYADGRRTAYSDSVK,GEAAGTFDF,-0.06 / -0.07 / 0.01 / 0.08 / -0.20 / -0.35,-0.10,0/18
GFDLNEYGIS,VIYADGKRTFYSDSVK,GQNAGTFDV,-0.55 / -0.31 / -0.58 / -0.74 / -0.74 / -0.67,-0.60,1/18 (1.43)
GFDLNEYGIS,VIYADGKRTFYVDSVK,GETAGTFDV,-0.47 / -0.65 / -0.41 / -0.87 / -1.00 / -0.12,-0.59,0/18
GFDLNEYGIS,VIYADGSRTFYADSVK,GNAAGTFDV,-0.35 / -0.16 / -0.04 / 0.20 / -0.32 / 0.58,-0.02,0/18
GFDLNEYGIS,VIYADGRRTAYADSVK,GEAAGTFDE,0.51 / 0.39 / 1.26 / -0.13 / 0.15 / 0.38,0.43,0/18
GFDLNEYGIS,VIYADGRRTFYTDSVK,GQIAGTFDS,ND / -0.16 / ND / -0.90 / 1.47 / -0.44,-0.01,0/18
GFDLDEYGIS,VIYADGRRTYYADSVK,GSNAGTFDM,-0.46 / -0.07 / -0.37 / -0.50 / -0.66 / -0.34,-0.40,0/18
GFDLNEYGIS,VIYADGRRTFYSDSVK,GNAGGTFDM,1.87 / 1.96 / 2.10 / 1.15 / 1.40 / 1.72,1.70,1/18 (2.62)
GFDLNEYGIS,VIYADGQRTFYADSVK,GSEAGTFDM,-0.76 / -0.84 / -0.95 / -1.00 / -0.89 / -0.66,-0.85,0/18
GFNLDEYGIS,VIYADGRRTFYSDNVK,GEIAGTFDI,-0.01 / -0.14 / -0.44 / -0.52 / -0.22 / -0.34,-0.28,0/18
GFDLNEYGIS,VIYADGSRTFYSDSVK,GNQAGFFDV,ND / ND / ND / ND / ND / ND,ND,0/18
GFDLNEYGIS,VIYADGRRTFYQDSVK,GESAGTFDQ,0.68 / -0.35 / -0.06 / -0.75 / -0.74 / -0.53,-0.29,0/18
GFDLDEYGIS,VIYADGRRTAYADSVK,GQNAGTFDQ,0.15 / 0.51 / 0.75 / 0.92 / 0.68 / 0.73,0.62,0/18
GFDLNEYGIS,VIYADGKRTFYSDSVK,GQLAGTFDS,-0.80 / -0.42 / -1.03 / -0.89 / -1.06 / -0.46,-0.78,1/18 (0.29)
GFDLDEYGIS,VIYADGMRTFYADSVK,GTNAGTFDS,-0.51 / -0.71 / -0.31 / -0.61 / -0.63 / -0.35,-0.52,0/18
GFNLNEYGIS,VIYADGRRTFYADSVK,GQQAGTFDV,-0.54 / -0.85 / -0.63 / -0.80 / -0.85 / -0.72,-0.73,1/18 (2.37)
GFDLNEYGIS,VIYADGVRTFYADSVK,GETAGTFDQ,-0.57 / -0.72 / -0.70 / -0.61 / -0.69 / -0.47,-0.63,0/18
GFDLDEYGIS,VIYADGMRTFYADSVK,GNQAGTFDS,-0.54 / -0.23 / -0.86 / -0.81 / -0.32 / -0.41,-0.53,0/18
GFDLNEYGIS,VIYADGRRTFYSDSVK,GTTGGTFDI,-0.21 / -0.02 / -0.36 / -0.36 / -0.29 / 0.05,-0.20,1/18 (1.03)
GFDLNEYGIS,VIYADGRRQAYIDSVK,GHVAGTFDV,0.97 / ND / ND / ND / ND / ND,0.97,0/18
GFDLNEYGIS,VIYADGRRTAYSDSVK,GGNAGTFDF,0.07 / -0.17 / 0.16 / -0.07 / -0.11 / 0.70,0.10,0/18
GFDLNEYGIS,VIYADGRRTFYTDSVK,GALAGTFDQ,-0.61 / -0.92 / -0.67 / -0.33 / -0.83 / -0.44,-0.63,0/18
GFDLNEYGIS,VIYADGRRTAYDDSVK,GNVAGTFDS,-0.14 / -0.13 / -0.18 / -0.40 / -0.14 / -0.22,-0.20,0/18
GFDLNEYGIS,VIYADGRRTAYIDSVK,GQVAGTFDS,-0.73 / -0.42 / -0.82 / -1.06 / -0.65 / 0.68,-0.50,1/18 (0.79)
GFDLDEYGIS,VIYADGRRTFYADSVK,GELAGTFDA,-0.10 / -0.46 / -0.57 / -0.74 / -0.72 / -0.19,-0.46,1/18 (2.20)
GFDLDEYGIS,VIYADGRRTAYTDSVK,GGNAGTFDV,-0.18 / -0.31 / -0.41 / -0.45 / -0.50 / -0.62,-0.41,0/18
GFDLNEYGIS,VIYADGRRTFYSDSVK,GEAAGTFDS,0.04 / -0.66 / 0.03 / -1.01 / -0.05 / -0.03,-0.28,0/18
GFDLDEYGIS,VIYADGMRTFYADSVK,GNNAGTFDS,-0.21 / -0.60 / -0.42 / -0.51 / -0.49 / -0.58,-0.47,0/18
GFDLNEYGIS,VIYADGRRTFYADSVK,GKIAGTFNV,-0.91 / -0.99 / -0.86 / -0.78 / -1.05 / -0.62,-0.87,0/18
GFDLNEYGIS,VIYADGRRTFYADSVK,GKAAGTFDM,-0.63 / -0.78 / -0.75 / -0.65 / -1.03 / -0.70,-0.76,0/18
GFDLNEYGIS,VIYADGRRSYYADSVK,GQNAGTFDV,-1.49 / 0.96 / 0.22 / -1.09 / -0.94 / -0.56,-0.48,0/18
GFNLNEYGIS,VIYADGRRTFYADSVK,GQVAGTFDL,0.66 / 0.12 / 0.12 / 0.22 / 0.28 / 0.71,0.35,0/18
GFNLDEYGIS,VIYADGMRTFYSDSVK,GEVAGTFDI,-0.36 / 0.13 / -0.32 / -0.53 / -0.01 / -0.26,-0.23,0/18
GFDIDEYGIS,VIYADGMRTFYTDSVK,GEAAGTFDV,-0.37 / -0.48 / -0.62 / -0.27 / -0.44 / -0.38,-0.43,0/18
GFDLNEYGIS,VIYADGMRTFYADSVK,GNEAGTFDM,-0.49 / -0.71 / ND / -0.52 / -0.71 / -0.77,-0.64,0/18
GFDLDEYGIS,VIYADGQRTFYSDSVK,GETAGTFDV,-0.46 / -0.66 / -0.91 / -0.67 / -0.70 / -0.74,-0.69,1/18 (1.23)
GFNLDEYGIS,VIYADGRRTFYADSVK,GQVAGTFVS,0.57 / 0.07 / -0.05 / -0.39 / 1.59 / 0.31,0.35,0/18
GFDLDEYGIS,VIYADGQRTFYADSVK,GEAAGTFDV,0.42 / 0.19 / -0.17 / -0.42 / -0.35 / -0.20,-0.09,0/18
GFDLNEYGIS,VIYADGMRTFYTDSVK,GEHAGTFDS,0.21 / -0.31 / -0.72 / -0.63 / -0.58 / -0.37,-0.40,0/18
GFDLENYGIS,VIYADGRRTFYADKVK,GENAGTFDI,-0.29 / 0.27 / 0.64 / 0.23 / -0.46 / 0.09,0.08,1/18 (0.94)
GFDLNEYGIS,VIYADGRRTFYTDSVK,GENAGTFDV,0.80 / 0.87 / 0.20 / 0.12 / 0.19 / 0.57,0.46,0/18
GFDLNEYGIS,VIYADGLRTSYDDSVK,GQVAGTFDQ,ND / 2.00 / ND / ND / ND / ND,2.00,1/18 (2.43)
GFDLNEYGIS,VIYADGRRTFYADSVK,GQEAGTFTL,-0.15 / -0.07 / -0.40 / -0.04 / -0.16 / 0.00,-0.14,1/18 (1.56)
GFDLNEYGIS,VIYADGMRTFYTDSVK,GEEAGTFDS,0.01 / 0.27 / 0.14 / 0.32 / 0.00 / 0.27,0.17,0/18
GFDLDEYGIS,VIYADGRRTFYADSVK,GTLAGTFDQ,-1.07 / -1.02 / 0.30 / -0.41 / -1.77 / -0.63,-0.77,0/18
GFDLNEYGIS,VIYADGMRTSYDDSVK,GQLAGTFDQ,-0.36 / -1.05 / 0.91 / ND / -0.17 / -0.07,-0.15,0/18
GFDLNEYGIS,VIYADGRRTFYVDSVK,GNVAGTFNV,-0.37 / -0.74 / -0.97 / -0.69 / -0.72 / -0.56,-0.68,0/18
GFDLNEYGIS,VIYADGRRTFYIDSVK,GNNAGTFDV,-0.62 / -0.45 / -0.76 / -0.66 / -0.42 / -0.57,-0.58,0/18
GFDLNEYGIS,VIYADGMRTFYADNVK,GEVAGTFIV,ND / 1.96 / ND / 2.29 / ND / 1.92,2.05,0/18

The 7 strongest on average among those seen in every replicate, once more:

CDR-H1	CDR-H2	CDR-H3	log10 Kd (nM) by replicate	log10 Kd (nM), mean	control signals
GFDLNEYGIS	VIYADGRRTFYADSVK	GKIAGTFNV	-0.91 / -0.99 / -0.86 / -0.78 / -1.05 / -0.62	-0.87	0/18
GFDLNEYGIS	VIYADGQRTFYADSVK	GSEAGTFDM	-0.76 / -0.84 / -0.95 / -1.00 / -0.89 / -0.66	-0.85	0/18
GFDLNEYGIS	VIYADGKRTFYSDSVK	GQLAGTFDS	-0.80 / -0.42 / -1.03 / -0.89 / -1.06 / -0.46	-0.78	1/18 (0.29)
GFDLDEYGIS	VIYADGRRTFYADSVK	GTLAGTFDQ	-1.07 / -1.02 / 0.30 / -0.41 / -1.77 / -0.63	-0.77	0/18
GFDLNEYGIS	VIYADGRRTFYADSVK	GKAAGTFDM	-0.63 / -0.78 / -0.75 / -0.65 / -1.03 / -0.70	-0.76	0/18
GFNLNEYGIS	VIYADGRRTFYADSVK	GQQAGTFDV	-0.54 / -0.85 / -0.63 / -0.80 / -0.85 / -0.72	-0.73	1/18 (2.37)
GFDLDEYGIS	VIYADGQRTFYSDSVK	GETAGTFDV	-0.46 / -0.66 / -0.91 / -0.67 / -0.70 / -0.74	-0.69	1/18 (1.23)

Values reported by Li et al. 2023, doi:10.1038/s41467-023-39022-2 (FLAb copy).